Tested on: Cytosolic phospholipase A2 (Bos taurus)
Assay: Inhibitory activity against cPLA2 (cytosolic Phospholipase A2) by measuring the calcium ionophore A-23,187-induced arachidonic acid release from bovine platelets at a compound conc of 33 uM

With CCCCCCCCCCCCCCCCCC(=O)c1c(CC(=O)O)n(C)c2ccccc12 as the compound, how does the inhibition read?
The inhibition was > 28%.
